IC50 data for four molecules are collected here from US20140249076A1 (AstraZeneca / MedImmune, published 2014).

The chains behind the UniProt entries cited, without tags or fusion partners. Residues count along the entry.
UniProt Q16602, 23-461, chain 1 of 2: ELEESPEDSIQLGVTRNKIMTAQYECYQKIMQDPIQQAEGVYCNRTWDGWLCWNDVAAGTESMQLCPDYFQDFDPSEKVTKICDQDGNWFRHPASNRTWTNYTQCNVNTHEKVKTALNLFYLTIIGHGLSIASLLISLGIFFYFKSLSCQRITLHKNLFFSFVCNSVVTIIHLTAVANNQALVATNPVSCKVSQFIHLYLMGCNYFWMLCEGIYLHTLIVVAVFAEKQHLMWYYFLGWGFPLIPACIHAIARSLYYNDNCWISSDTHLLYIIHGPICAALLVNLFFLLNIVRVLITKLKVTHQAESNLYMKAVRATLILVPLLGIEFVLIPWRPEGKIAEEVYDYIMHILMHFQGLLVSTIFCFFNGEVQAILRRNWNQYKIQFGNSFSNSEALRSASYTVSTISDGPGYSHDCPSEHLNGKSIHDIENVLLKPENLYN
UniProt O60894, 27-148, chain 2 of 2: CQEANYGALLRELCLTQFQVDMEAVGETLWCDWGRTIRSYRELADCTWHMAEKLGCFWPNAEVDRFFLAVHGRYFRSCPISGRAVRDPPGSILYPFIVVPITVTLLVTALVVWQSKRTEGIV

Experiment [1] addresses T1, amylin receptor (RNA membranes).
T1 construct: Membrane preparation
Description: displacement of 125I-rat amylin from RNA membranes. As for the experimental part:
(§1) A variety of receptor binding and functional activity assays were conducted using the peptide conjugates described herein.
Dried glass fiber plates were combined with scintillant and counted on a multi-well Perkin Elmer scintillation counter, as well known in the art.

For experiment [2], the target named is T2, CGRP receptor (SK-N-MC cell membranes) (UniProt Q16602; O60894, in part).
T2 construct: whole, on cells
Put plainly: displacement of 125I-human CGRP from SK-N-MC cell membranes. As for the experimental part:
as §1
Dried glass fiber plates were combined with scintillant and counted on a multiwell Perkin Elmer scintillation counter.
On the technique in general: In a radioligand displacement assay an active substance lowers the binding of a labelled ligand.

CNTATCVLGRLSQELHRLQTYPRTNVGSNTY (mPEG40KD on the N-terminal nitrogen; C-terminal amide) [Cmpd 151 (mPEG40KD-Cmpd 2)] came in with a concentration for half-maximal inhibition (IC50) in experiment [1] of 87 nM. In turn, CNTATCVLGRLSQELHRLQTYPRTNVGSNTY (C-terminal amide, also called [desLys^1]-Cmpd 1) [Cmpd 2] came in with a half-inhibitory concentration (IC50) in experiment [2] of 3.8 nM.

B1: Cmpd 169 (Acetyl-[K^26(mPEG40KD)]-Cmpd 2) (peptide)
peptide: CNTATCVLGRLSQELHRLQTYPRTKVGSNTY
modifications: N-terminal acetyl; mPEG40KD on the side-chain amine of Lys 26 (Formula (I)/Cmpd 1 numbering; residue 25 of this chain); C-terminal amide
notes: also called Acetyl-[desK^1, K^26(PEG40 KD)]-Cmpd 1
B1 yielded a half-inhibitory concentration (IC50) in experiment [1] of 17 nM.

B2: Cmpd 156 (Acetyl-[K^21(mPEG40KD)]-Cmpd 2) (peptide)
peptide: CNTATCVLGRLSQELHRLQKYPRTNVGSNTY
modifications: N-terminal acetyl; mPEG40KD on the side-chain amine of Lys 21 (Formula (I)/Cmpd 1 numbering; residue 20 of this chain); C-terminal amide
With B2, the half-inhibitory concentration (IC50) in experiment [1] was 8.4 nM.

A word on the IC50: it is the point on the concentration scale where inhibition reaches its midpoint. A higher IC50 goes with weaker potency.
